Values quoted from earlier work, collected in patent US7164021B2, “Opiate analogs selective for the δ-opioid receptor” (The Curators of The University of Missouri, priority 2002, dated 2007).

Protein sequences, listed by entry. Tags and fused reporters are not part of them.
UniProt P33535, whole entry: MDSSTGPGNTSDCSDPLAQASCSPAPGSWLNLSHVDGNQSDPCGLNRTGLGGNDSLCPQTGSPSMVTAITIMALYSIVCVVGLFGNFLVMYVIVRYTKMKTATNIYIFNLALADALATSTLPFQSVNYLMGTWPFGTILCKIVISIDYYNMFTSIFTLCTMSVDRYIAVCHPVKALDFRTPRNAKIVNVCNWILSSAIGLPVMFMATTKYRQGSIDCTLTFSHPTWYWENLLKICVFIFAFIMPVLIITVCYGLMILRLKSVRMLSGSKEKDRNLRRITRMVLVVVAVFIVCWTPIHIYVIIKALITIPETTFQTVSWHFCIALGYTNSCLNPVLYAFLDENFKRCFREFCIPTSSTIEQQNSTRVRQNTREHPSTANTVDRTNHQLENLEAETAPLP

Target: μ receptor (Rattus norvegicus, UniProt P33535)
Details: experimental value of the reference opioid; cited from earlier work

## Oc1ccc2c3c1O[C@H]1c4[nH]c5ccccc5c4C[C@@]4(O)[C@@H](C2)N(CC2CC2)CC[C@]314 [NTI, naltrindole]
  experimental affinity μ receptor (value in parenthesis): 7.19(7.19)#

Marks after values point to notes of the source that are not given here.
